Data set [1] addresses T1, murine ramp 1/C1ins− receptor (Mus musculus, UniProt Q60755+Q9WTJ5).
T1 construct: expressed in transfected cells; host or cells: L6 myoblasts (ATCC), transient co-transfection of pcDNA3.1 plasmids
T1 sequence (Q60755 42-496 isoform Q60755-2 limits assumed): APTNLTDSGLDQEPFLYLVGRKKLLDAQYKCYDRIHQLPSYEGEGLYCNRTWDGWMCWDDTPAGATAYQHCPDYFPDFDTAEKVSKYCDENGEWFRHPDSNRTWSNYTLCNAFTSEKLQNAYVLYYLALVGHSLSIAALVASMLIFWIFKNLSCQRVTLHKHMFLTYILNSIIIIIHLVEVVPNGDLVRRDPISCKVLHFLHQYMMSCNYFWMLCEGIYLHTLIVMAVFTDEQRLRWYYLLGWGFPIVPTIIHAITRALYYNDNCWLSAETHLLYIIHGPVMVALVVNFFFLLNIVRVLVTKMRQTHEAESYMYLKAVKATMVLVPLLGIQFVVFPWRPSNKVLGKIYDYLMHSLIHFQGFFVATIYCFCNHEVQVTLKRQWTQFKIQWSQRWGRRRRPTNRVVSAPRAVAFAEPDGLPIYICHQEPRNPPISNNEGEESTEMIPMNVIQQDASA
T1 sequence (Q9WTJ5 27-148 partner): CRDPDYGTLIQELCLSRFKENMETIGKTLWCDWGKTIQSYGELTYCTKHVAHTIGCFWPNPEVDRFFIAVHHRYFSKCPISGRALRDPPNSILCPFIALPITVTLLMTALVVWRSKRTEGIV
The data set can be described thus: Radioligand binding and displacement of [3H]amylin in L6 myoblasts co-transfected with murine ramp 1 and C1ins−. Conditions: for IC50: displacement of [3H]amylin (20 nM), co-transfected L6 myoblasts; for Ki: read-out: K1.

By UniProt entry, the sequences of proteins in these tests, tags left out. Residues count along the entry.
metabolic amylin receptor (Rattus norvegicus, UniProt P32214), UniProt Q9JJ74, 27-148 partner: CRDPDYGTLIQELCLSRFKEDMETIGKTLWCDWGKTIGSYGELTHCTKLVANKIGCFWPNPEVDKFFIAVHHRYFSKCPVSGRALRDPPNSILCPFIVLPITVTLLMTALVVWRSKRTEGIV

In data set [2] the test system is Wistar rats. The data set can be described thus: Serum hormones and blood metabolites following acute CGRP infusion in anaesthetised normal-fed rats. Type of data set: in vivo, rat. As to the method: (§1) Surgery. Experiments were performed on male Wistar rats. Animals were randomly assigned to experimental groups as outlined below. Induction and maintenance of surgical anesthesia was by 3-5% halothane and 2L oxygen. An initial blood sample was taken from a tail artery for measurement of baseline levels of blood glucose and lactate, electrolyte, acid base and oxygen status and serum levels of free fatty acids, triglyceride and cholesterol. Immediately following this, the trachea was cannulated and the animal ventilated at 60-70 breaths.min-1 with air supplemented with O2. The respiratory rate and end-tidal pressure (10-15 cmH2O) were adjusted to maintain end-tidal CO2 at 35-40 mmHg. Body temperature was maintained at 37° C. throughout surgery and the experiment by a heating pad. The carotid artery and jugular vein were cannulated with a solid-state blood pressure transducer and a saline filled PE 50 catheter respectively. […] Blood samples were taken from this line at time zero (baseline reading), 30 minutes and every 20 minutes until the end of the experiment at 90 minutes.
(§2) Infusion. […] At the end of the infusion a terminal blood sample was taken by cardiac puncture and analysed as per the basal sample and also for various metabolites and hormones. […]

Data set [3] concerns the target T2, metabolic amylin receptor (Rattus norvegicus, UniProt P32214).
T2 construct: from tissue; host or cells: isolated soleus muscle strips of male Wistar rats
T2 sequence (P32214 25-479 isoform P32214-2): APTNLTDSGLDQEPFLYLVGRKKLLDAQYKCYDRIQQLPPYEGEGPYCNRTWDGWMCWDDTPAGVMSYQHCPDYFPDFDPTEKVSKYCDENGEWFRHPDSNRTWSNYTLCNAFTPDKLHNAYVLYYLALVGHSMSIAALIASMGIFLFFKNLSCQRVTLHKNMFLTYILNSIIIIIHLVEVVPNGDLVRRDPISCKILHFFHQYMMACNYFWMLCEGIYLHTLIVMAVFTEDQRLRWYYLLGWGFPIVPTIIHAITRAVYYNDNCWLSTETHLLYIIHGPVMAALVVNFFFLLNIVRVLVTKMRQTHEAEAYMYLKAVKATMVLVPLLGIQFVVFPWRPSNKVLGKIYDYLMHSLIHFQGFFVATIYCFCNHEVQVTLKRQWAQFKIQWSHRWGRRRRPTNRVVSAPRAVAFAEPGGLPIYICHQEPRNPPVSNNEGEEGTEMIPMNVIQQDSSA
T2 sequence (Q9JJ74 27-148 partner): T1 sequence (Q9WTJ5 27-148 partner) with N21D, Q38G, Y45H, H49L, H52N, T53K, R65K, I80V, A98V
The data set can be described thus: Dose-response of free fatty acid content in incubated rat soleus muscle, nanomolar (second) phase. The class given is cell-based. As to the method: […]. This breakdown can be detected as an increase of free fatty acids. […]. Leighton et al., 1989, FEBS Lett 249:357-361). […].
Soleus muscle tissue isolation and incuhation.Immersion and incubation media was Krebs-Henseleit buffer (KHB) containing 118.5 mM NaCl, 4.75 mM KCl, 1.18 mM MgSO4.7H2O and KH2PO4, 24.8 mM NaHCO3, 2.54 mM CaCl2 and 10 mM d-glucose. The medium was gassed continuously with 95% O2/5% CO2. Incubations were preformed in KHB alone or containing various concentrations of CGRP, amylin, norepinephrine, insulin or the CGRP and amylin antagonists where appropriate. Soleus muscles of both legs were excised keeping the tissue immersed in KHB; muscles were separated into two equal parts and transferred to the incubation flasks. At the completion of incubation the muscles were snap frozen in liquid nitrogen, and then trimmed of connective tissue and all visible fat. The muscle strips were stored at −80° C. until analysis.
Lipid extraction and chromatographic separation of fatty acids. […]
Determination of tissue free fatty acids and triacylglycerol concentration by enzymatic analyses. […] Free fatty acids were quantified using a commercial method (Boehringer Mannheim) adapted for micro analyses (Cobas Mira, Roche Diagnostics), with palmitic acid standards. Triacyl glycerol levels were quantified in the total lipid fraction (Pointe Scientific) with a glycerol standard. […]

The test system of data set [4] is Wistar rats. The data set can be described thus: Mean arterial pressure and blood glucose during CGRP infusion in rats. The class given is in vivo, rat. As to the method: as §1, with “pad.” for “pad. The carotid artery and jugular vein were cannulated with a solid-state blood pressure transducer and a saline filled PE 50 catheter respectively.”
as §2
Mean arterial pressure (MAP), heart rate (HR, derived from the MAP waveform) oxygen saturation (Nonin 8600V Pulse Oximeter) and core body temperature were all continuously monitored throughout the experiment using a PowerLab/16s data acquisition module.

Residue numbers refer to the chain shown, from its start. Like-named read-outs stand apart in the source and are kept apart here.

Regarding rat amylin-(8-37), in data set [1], the IC50 amounted to 1270 nM and the Ki is 399 nM.

In data set [1], rat CGRP-1 came in with an IC50 of 63 nM. Moreover, in data set [1], the Ki worked out at 20 nM. In the data set with Wistar rats [2] (100 pmoles/kg/hr infused animals), the “serum concentration, steady state over the hour infusion period” value amounted to 0.3 nM. For the same substance, in the data set on Wistar rats [2] (after CGRP infusion, control 6.3 ± 0.8), the “Serum hormone concentration: CGRP” value was determined as 325 ± 75 pM. The EC50 is 45 nM in data set [3] (incubated rat soleus muscle, 1 h, 95% C.I. 8.5 to 95, r^2 0.51, read-out: EC50 for increased free fatty acid content, second phase) and roughly 45 nM in data set [3] (skeletal muscle free fatty acid, second phase, CGRP-1 or 2, read-out: EC50 of second phase of lipolysis via metabolic amylin receptor). The mean arterial pressure entry with Wistar rats [4] (60 minute CGRP infusion, significant during final 10 minutes) is listed as “decrease in mean arterial pressure”. For the same substance, the blood glucose concentration entry with Wistar rats [4] (infusion, tail blood at 5-minute intervals, FIG. 21) is “significant increase in blood glucose concentration”.

Regarding Rat amylin, in data set [1], the IC50 turned out to be 23 nM and the Ki was 7.4 nM.

By IC50 is commonly meant the concentration needed to halve the response being measured. Read a low IC50 as greater potency. A word on the EC50: it is the concentration needed to bring the measured effect to its halfway point.

For the origin of these results see patent publication US20040038861A1, “Methods and compositions for normalizing lipid levels in mammalian tissues” (priority 2001, published 2004).
